Laboratory results as given in article PMC9023740, “Mucin-Type O-Glycosylation Proximal to β-Secretase Cleavage Site Affects APP Processing and Aggregation Fate” (Frontiers in Chemistry, 2022).
Where “and” joins values, the source holds several entries; their conditions need not be identical. Identical values can stand only once.

Sequences of proteins named here, by UniProt entry; tags and fusion partners are left off. Residues count along the entry.
UniProt P05067, 672-711 limits assumed: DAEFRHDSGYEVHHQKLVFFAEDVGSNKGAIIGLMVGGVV
UniProt P56817, 46-457 limits assumed: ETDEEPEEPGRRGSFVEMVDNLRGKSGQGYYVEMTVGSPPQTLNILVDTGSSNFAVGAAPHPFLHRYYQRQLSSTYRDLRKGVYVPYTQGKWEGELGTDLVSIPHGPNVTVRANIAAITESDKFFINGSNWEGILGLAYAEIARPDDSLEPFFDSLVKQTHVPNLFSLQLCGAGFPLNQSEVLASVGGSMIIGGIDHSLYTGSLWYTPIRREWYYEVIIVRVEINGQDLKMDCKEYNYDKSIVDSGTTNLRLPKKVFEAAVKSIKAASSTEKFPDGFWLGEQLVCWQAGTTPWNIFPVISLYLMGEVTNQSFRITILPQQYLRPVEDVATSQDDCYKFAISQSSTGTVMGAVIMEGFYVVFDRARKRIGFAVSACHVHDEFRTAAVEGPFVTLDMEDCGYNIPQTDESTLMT

Tests used:
Aβ40 [1] = biological target: T1, Aβ40 (Homo sapiens, UniProt P05067); assay: ThT aggregation kinetics assay of Aβ40 with APP (glyco)peptides; conditions: for Δt50 (APP (glyco)peptide t50 - Aβ40 t50): Aβ40 10 µM, 50 mM phosphate buffer pH 7.4, 20 µM ThT, 37°C, means of triplicate kinetics
T1 construct: Aβ40 peptide was synthesized on a PS3 solid phase peptide synthesizer; made in house; host or cells: chemical solid-phase peptide synthesis (Fmoc), no expression host
Procedure: Aβ40 peptide was synthesized on a PS3 solid phase peptide synthesizer (Protein Technologies Inc., Woburn, MA) using the standard Fmoc strategy. The resulting crude peptide was purified by reversed-phase high-performance liquid chromatography (RP-HPLC) using a C18 column and characterized by matrix-assisted laser desorption ionization (MALDI) mass spectrometry. The peptide was monomerized as described previously before use ([Liu et al., 2018]). Lyophilized peptide powder was dissolved in aqueous NaOH solution (2 mM), and the pH was adjusted to ∼11 by using 100 mM NaOH solution. The solution was sonicated for 1 h in an ice−water bath and then filtered through a 0.22 μm filter (Millipore) and kept on ice before use. The concentration of the peptide solution was determined by using the tyrosine UV absorbance at 280 nm (ε = 1280 M^−1 cm^−1).
The aggregation kinetics of Aβ40 in the absence and presence of APP (glyco)peptides was performed using ThT binding assay. The monomerized Aβ40 peptide solution was diluted to a final concentration of 10 µM in 50 mM phosphate buffer (pH 7.4) and 20 µM ThT dye. For the co-incubation assays with APP (glyco)peptides, APP stock solutions of 120 µM were added to the prepared Aβ40 for final (glyco) peptide concentrations of 10 µM or 50 µM and Aβ40 concentration of 10 µM in 50 mM phosphate buffer (pH 7.4) with 20 µM ThT dye. 100 µL of each prepared solution was run in triplicate of a 96-well microplate (Costar black, clear bottom). The plate was sealed with a microplate cover and loaded into a Gemini SpectraMax EM fluorescence plate reader (Molecular Devices, Sunnyvale, CA) and incubated at 37°C. The ThT fluorescence was measured from the bottom of the plate at 10 min intervals, with 5 s of shaking, and with an excitation and emission wavelengths of 440 and 480 nm, respectively. Error bars of triplicate samples are shown for the particular data points.
We adopted the widely used thioflavin T (ThT) assay ([Xue et al., 2017]) to investigate how O-glycosylation impacts the kinetics of fiber formation of Aβ40, a model peptide for studying the dynamics of protein aggregation. […] At the conditions used in this study, it has been shown that Aβ amyloidogenesis proceeds by a nucleation-dependent polymerization mechanism that involves key soluble oligomeric intermediates ([Du et al., 2011]; [Elbassal et al., 2017]). The half time (t 50) of the growth phase of the Aβ40 amyloidogenesis was approximately 8 h (Figure 2, Supplementary Material S33–S40), where t 50 is defined as the time at which the fluorescence intensity reaches the midpoint between the pre- and post-aggregation baselines.
4. Aggregation kinetic ThT fluorescence curves of APP (glyco)peptides 3-16 coincubated with
For the aggregation kinetic assay, APP (glyco)peptide stock solutions were added to the prepared
Aβ40, phosphate buffer and ThT solution for final APP (glyco)peptide concentrations of 10 µM and
50 µM. 100 µL of prepared solution was distributed into each well and carried out in triplicate at 37
°C. ThT fluorescence was measured in 10 minute intervals.
Figure S1b. APP665-680-S*, 4 coincubated with Aβ40
(also on this page, place not known: 15 Normalized Fluorescence Intensity (h) 20 Normalized Fluorescence Intensity (h))

[2] = analytical RP-HPLC; footnote c: reported earlier; ref Singh et al., 2021; cited from earlier work
Source text: TABLE 1 Characterization of APP (glyco)peptides 3–16 by analytical RP-HPLC and MALDI-MS ^a . | column: RP-HPLC / t R (min)

Aβ40 [3] = biological target: T1, Aβ40; assay: AFM analysis of Aβ40 fibril morphology with APP (glyco)peptides; conditions: 24 h incubation with Aβ40, tapping mode
Procedure: AFM was employed to monitor the morphological changes of Aβ40 incubated in the absence and presence of tyrosine glycosylated (14 and 16) and nonglycosylated APP analogues (13 and 15). Aliquots (15 µL) of Aβ40 solutions were collected directly from the aggregation kinetics assay and spotted onto the surface of the freshly cleaved mica surface (5 mm × 5 mm) on solid support at room temperature. Before the measurement, the samples were covered and dried in a vacuum desiccator overnight. The AFM images were acquired in tapping mode with an area of 4 μm^2, using AFM workshop TT-2 (Hilton Head Island, SC) with MikroMash NSC 15/Al BS silicon cantilevers (MikroMash, Watsonville, CA). The AFM images were further visualized and analyzed using the Gwyddion software.

[4] = biological target: T2, Recombinant human BACE-1 (rhBACE-1) (Homo sapiens, UniProt P56817); conditions: treatment with BACE-1 enzyme; footnote b: reported earlier; ref Singh et al., 2021; cited from earlier work
T2 construct: purchased R&D Systems #ES004 and #931-AS, respectively (so in the source)
Source text: TABLE 3 Proteolytic cleavage of APP (glyco)peptides 3–12 upon treatment with BACE-1 enzyme (KM∼D/NL∼D cleavage site) ^a . | column: BACE-1 activity / Recovered (%); BACE-1 activity / Cleaved (%) || Other key aspects affecting BACE-1 cleavage rates in the presence of the Swedish mutation were the length of the C-terminal Aβ fragment and the glycan position relative to the cleavage site. For example, 16 contains Aβ-(1–23) C-terminal fragment and is cleaved to a much lesser extent (42.4%) by BACE-1 than 11 that contains Aβ-(1–9) C-terminal fragment (98.1%). Moreover, the relative position of the GalNAc moiety on Thr^663 and Tyr^681 in 11 and 16, respectively, can also influence enzymatic activity. Even though 16 is cleaved to a lesser extent than 11 by BACE-1, the ∼3-fold increase in cleave ...

Substance | Δt50 (APP (glyco)peptide t50 - Aβ40 t50) (Aβ40 [1]; peptide 25 µM) | ThT signal at higher concentration (Aβ40 [1]; peptide 50 µM with Aβ40 10 µM) | RP-HPLC t R [2] | AFM morphology of Aβ40 fibrils (Aβ40 [3]; peptide 25 μM) | BACE-1 activity, Cleaved (%) [4] | BACE-1 activity, Recovered (%) [4] | Δt50 (APP (glyco)peptide t50 - Aβ40 t50) (Aβ40 [1]; (glyco)peptide 50 µM) | AFM morphology of Aβ40 fibrils (Aβ40 [3]; (glyco)peptide 50 μM)
IKTEEISEVKM∼DAEFRHDSGYEVHHQK∼LVFFAED [compound 13, native nonglycosylated APP 661-694 peptide containing Aβ-(1–23), reported in Singh et al., 2021] | 7.1 h | complete saturation of the ThT signal | 17.6 min | lower density of Aβ40 fibrils | 0.0 ^b % | 100 ^b % | – | –
IKTEEISEVNL∼DAEFRHDSGYEVHHQK∼LVFFAED [compound 15, Swedish-mutated nonglycosylated APP 661-694 peptide, reported in Singh et al., 2021] | – | – | 18.2 min | – | 13.1 ^b % | 86.8 ^b % | 5.2 h | fibrilar morphology similar to that of Aβ40 alone
IKTEEISEVNL∼DAEFRHDSGY*EVHHQK∼LVFFAED [compound 16, Swedish-mutated APP 661-694 glycopeptide with O-GalNAc on Tyr^681, reported in Singh et al., 2021] | – | – | 17.8 min | – | 42.4% and 42.4 ^b % | 57.4 ^b % | 15.2 h | thinly dispersed and less dense Aβ40 fibril
IKTEEISEVKM∼DAEFRHDSGY*EVHHQK∼VFFAED [compound 14, native APP 661-694 glycopeptide with O-GalNAc on Tyr^681, reported in Singh et al., 2021] | – | – | 17.1 min | – | 0.0 ^b % | 100 ^b % | 12.1 h | less fibrils formed, and the ones formed were shorter in size
